Laboratory results published in patent US20150110865A1, “CNS STIMULANT AND OPIOID RECEPTOR ANTAGONIST COMBINATION AS A NON-ADDICTIVE, NON-AVERSIVE AND SYNERGISTIC ANTI-OBESITY TREATMENT” (FLORIDA STATE UNIVERSITY RESEARCH FOUNDATION, priority 2013, published 2015).

Test system: μ opioid receptor (MOPR)
Test: MOPR activity by DAMGO-stimulated [35S]GTPγS binding in brain membranes of drug-treated mice after the CPP assay
Assay type: in vivo, mouse
Details: high-dose MPH 7.5 mg/kg
Protocol: Activity of the μ opioid receptor (MOPR) is assayed by using [35S]GTPγS binding on membrane preparations. The same mice that are used in the conditioned place preference assay are used for these assays Immediately upon completion of the behavioral assay, the mice are sacrificed by cervical dislocation and the brain is dissected rapidly. The brain is frozen in liquid nitrogen and 1.0 mm slices of the brain were prepared in the coronal plane using a tissue-slicing matrix (Model 15003; Ted Pella, Redding, Calif.). Caudate-putamen and nucleus accumbens are identified in the frozen slices based on anatomical landmarks and samples from these two brain regions are collected using a tissue punch. The samples are homogenized using teflon pestle in Eppendorf tubes (10 strokes) in 300 μl of homogenization buffer containing 25 mMTris/pH 7.4, 5 mMEDTA and 0.1 mMPMSF and kept on ice. Homogenate is diluted to 2.5 ml using the homogenization buffer and centrifuged at −350,000 g for 30 min. […]
Nonspecific binding is defined by incubation in the presence of 10 μM GTPγS. […] Radioactivity on filters is determined by liquid scintillation counting. […]
Differences between two experimental groups are analyzed for statistical significance by using Student's t-test. […]

COC(=O)C(c1ccccc1)C1CCCCN1 (centres unmarked) [MPH, methylphenidate]
MOPR activity compared to the saline group (after naltrexone CPP experiment, caudate-putamen and nucleus accumbens, n=8, FIG. 7): significantly higher than that in the saline group
MOPR activity compared to the saline group (caudate-putamen and nucleus accumbens (both regions), p<0.05, n=6, FIG. 4): significant increases in MOPR activity
